Data on two substances can be found in paper PMC13184988, “Enzymatic Bromination of Native Peptides for Late-Stage Structural Diversification via Suzuki–Miyaura Coupling” (ACS Chemical Biology, 2026).

The series deals with U2OS cells. The series is described as follows: Transportan localization (cellular uptake) assay, fluorescence imaging. Particulars: human U2OS cells, 5 µM, 20 min at 37°C, heparin washes, NucRed nuclear stain, fluorescence microscopy. The format is cell-based. Here is the method: Using this approach, we brominated Trp 2 of transportan and coupled it to naphthalene-1-boronic acid to generate a naphthyl-modified peptide (Nap-transportan, Nap-TN, Figure S37; Table S3). […] To assess whether this derivative could be used to visualize cellular uptake, we incubated human U2OS cells with Nap-TN for 20 min in the presence of a far-red nuclear stain (NucRed; Figure d). […]
control was added in quadruplicate to each well of the 96 well plate using a multichannel pipette.
The cells were incubated with compound in the dark for 10 min at room temperature. After […]
incubation, 500 nM forskolin (final concentration) or PBS control was added to each well.
Immediately upon addition of forskolin, luminescence values were recorded for 2 h using a 400 […]
For each agonist, data were normalized per-well according to the following equation:
% cAMP inhibition = <1 − > Y − Y!"# @A × 100
Where Y is the luminescence value at a given agonist concentration, Ymin is the luminescence […]
value at the highest agonist concentration, and Ymax is the luminescence value for the forskolin […]
only control. For agonists that gave biphasic responses, only the inhibitory portion (Y < Ymax) of […]
the dose–response curve was used for fitting.
The dose-response curve was fit to the following equation: […]
quantification of nuclear transportan signals in Figure 5e. Fluorescence images were background […]

In the case of 7-naphthalene-L-tryptophan [Nap-Trp], the “cellular uptake: intracellular blue fluorescence (DAPI channel imaging)” value is on record as “no detectable uptake”.
Regarding transportan, the “cellular uptake: intracellular blue fluorescence (DAPI channel imaging)” value is “No intracellular blue fluorescence”.
